Data from patent US8088775B2, “Pharmaceutical composition for treating hair loss” (priority 2004, dated 2012).
Structures can show the parent of a compound that is named as a salt.

Tested on: hair loss
Conditions: Example 4; tablets 10 mg once a day; 15 people
Description: Clinical Experiment to Study Effects for the Prevention of Hair Loss, and for Hair Toning and Hair Growth (2)
The effect for the prevention of hair loss is investigated by administering the tablets thus manufactured to 20 healthy adult males who are older than 20 years old and selected to be specimens (including 5 males in the placaebo control group) once a day.

O=C(O)COCCN1CCN(C(c2ccccc2)c2ccc(Cl)cc2)CC1 (stereo not shown) [composition of the present invention, 2-[2-[4-[(4-chlorophenyl)phenylmethyl]-1-piperazinyl]ethoxy]-acetic acid dihydrochloride]
Complaints about side effects such as sexual function disorder: no one among 15 people
